Laboratory results as given in patent publication US12171806B2, “Therapeutic regimens and methods for lowering blood glucose and/or body weight using GLP-1R and GCGR balanced agonists” (priority 2021, dated 2024).

Assay: Phase 1 MAD study of ALT-801: adverse events (TEAEs), safety overview
Details: M1 1.2 mg (N = 7)

CC[C@H](C)[C@H](NC(=O)[C@H](Cc1ccccc1)NC(=O)[C@H](CCC(=O)O)NC(=O)[C@@H]1CCCCNC(=O)CC[C@H](NC(=O)[C@H](CC(=O)O)NC(=O)[C@H](CC(C)C)NC(=O)[C@H](Cc2ccc(O)cc2)NC(=O)[C@H](CCCCN)NC(=O)[C@H](CO)NC(=O)[C@H](Cc2ccc(O)cc2)NC(=O)[C@H](CC(=O)O)NC(=O)[C@H](CO)NC(=O)[C@@H](NC(=O)[C@H](Cc2ccccc2)NC(=O)[C@@H](NC(=O)CNC(=O)[C@H](CCC(N)=O)NC(=O)C(C)(C)NC(=O)[C@@H](N)Cc2c[nH]cn2)[C@@H](C)O)[C@@H](C)O)C(=O)N[C@@H](CCCCNC(=O)[C@H]2O[C@@H](OCCCCCCCCCCCCCCCCCC(=O)O)[C@H](O)[C@@H](O)[C@@H]2O)C(=O)N[C@@H](C)C(=O)N[C@@H](C)C(=O)N1)C(=O)N[C@@H](CCC(N)=O)C(=O)N[C@@H](Cc1c[nH]c2ccccc12)C(=O)N[C@@H](CC(C)C)C(=O)N[C@@H](CC(C)C)C(=O)N[C@@H](CCC(N)=O)C(=O)N[C@H](C(N)=O)[C@@H](C)O [ALT-801, pemvidutide]
0: TEAE Application site erythema; Severe; n | TEAE Blood and lymphatic system disorders; Mild; n | TEAE Blood and lymphatic system disorders; Moderate; n | TEAE Blood and lymphatic system disorders; Severe; n | TEAE Cardiac disorders; Mild; n | TEAE Cardiac disorders; Moderate; n | TEAE Cardiac disorders; Severe; n | TEAE Constipation; Mild; n | TEAE Constipation; Moderate; n | TEAE Constipation; Severe; n | TEAE Diarrhoea; Mild; n | TEAE Diarrhoea; Moderate; n | TEAE Diarrhoea; Severe; n | TEAE Dyspepsia; Mild; n | TEAE Dyspepsia; Moderate; n | TEAE Dyspepsia; Severe; n | TEAE Early satiety; Mild; n | TEAE Early satiety; Moderate; n | TEAE Early satiety; Severe; n | TEAE Eye disorders; Moderate; n | TEAE Eye disorders; Severe; n | TEAE Eye pain; Moderate; n | TEAE Eye pain; Severe; n | TEAE Fatigue; Moderate; n | TEAE Fatigue; Severe; n | TEAE Food poisoning; Mild; n | TEAE Food poisoning; Moderate; n | TEAE Food poisoning; Severe; n | TEAE Fungal infection; Moderate; n | TEAE Fungal infection; Severe; n | TEAE Fungal skin; Mild; n | TEAE Gastrointestinal disorders; Severe; n | TEAE Haematemesis; Mild; n | TEAE Haematemesis; Moderate; n | TEAE Haematemesis; PLT; n | TEAE Haematemesis; Severe; n | TEAE Infections and infestations; Moderate; n | TEAE Infections and infestations; PLT; n
(0.0%): TEAE Blood and lymphatic system disorders; Mild; % | TEAE Blood and lymphatic system disorders; Moderate; % | TEAE Blood and lymphatic system disorders; Severe; % | TEAE Cardiac disorders; Mild; % | TEAE Cardiac disorders; Moderate; % | TEAE Cardiac disorders; Severe; % | TEAE Constipation; Mild; % | TEAE Constipation; Moderate; % | TEAE Constipation; Severe; % | TEAE Diarrhoea; Mild; % | TEAE Diarrhoea; Moderate; % | TEAE Diarrhoea; Severe; % | TEAE Dyspepsia; Mild; % | TEAE Dyspepsia; Moderate; % | TEAE Dyspepsia; Severe; % | TEAE Early satiety; Mild; % | TEAE Early satiety; Moderate; % | TEAE Early satiety; Severe; % | TEAE Eye disorders; Moderate; % | TEAE Eye disorders; Severe; % | TEAE Eye pain; Moderate; % | TEAE Eye pain; Severe; % | TEAE Fatigue; Moderate; % | TEAE Fatigue; Severe; % | TEAE Food poisoning; Mild; % | TEAE Food poisoning; Moderate; % | TEAE Food poisoning; Severe; % | TEAE Fungal infection; Moderate; % | TEAE Fungal infection; Severe; % | TEAE Fungal skin; Mild; % | TEAE Gastrointestinal disorders; Severe; % | TEAE Haematemesis; Mild; % | TEAE Haematemesis; Moderate; % | TEAE Haematemesis; PLT; % | TEAE Haematemesis; Severe; % | TEAE Infections and infestations; Moderate; % | TEAE Infections and infestations; PLT; % | TEAE Infections and infestations; Severe; %
1: TEAE Eye disorders; Mild; n | TEAE Eye pain; Mild; n | TEAE Fatigue; Mild; n | TEAE Fungal infection; Mild; n | TEAE Gastrointestinal disorders; Mild; n | TEAE Gastrointestinal disorders; Moderate; n | TEAE Infections and infestations; Mild; n
(14.3%): TEAE Eye disorders; Mild; % | TEAE Eye pain; Mild; % | TEAE Fatigue; Mild; % | TEAE Fungal infection; Mild; % | TEAE Gastrointestinal disorders; Mild; % | TEAE Gastrointestinal disorders; Moderate; % | TEAE Infections and infestations; Mild; %
